High-throughput results: PubChem, Broad Institute
ARNT TACC3 PPI: disruptors of ARNT/TACC3 protein interaction, primary screen, biochemical, AlphaScreen, single concentration; Transforming acidic coiled-coil-containing protein 3 (Homo sapiens), Q9Y6A5; AlphaScreen His-ARNT PAS-B/GST-TACC3 binding, luminescence; TACC3 fragment carries E629A point mutation; inhibition, % at 9.99 µM; hit rate 0.66% among 390,000;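 active = mean inhibition of replicates at least 50% and at least half of replicates each reaching 50%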
Yeast UUG start: modulators of start codon recognition fidelity in yeast; AID 602363; activity score, % at 18.7 µM; S. cerevisiae UUG-firefly luciferase reporter, luminescence/redox ratio; 0.13% of 350,000 active;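 active = replicate mean at a twofold rise or more, about +100% in these data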;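 note: firefly luciferase made from a UUG start codon reports start codon fidelity; reporter light over untreated wells divided by growth signal over untreated wells; some hits fall short of that in this replicate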
Vif imaging: HIV Vif self-association inhibitors, primary screen, imaging, HEK293T, single point; HEK293T cells, Vif self-association by quenched fluorescence, 24 h; inhibition, % at 7.49 µM; hit rate 0.35% among 340,000; in the data active = inhibition above about 50%, passing the limit was not always enough
CAL PDZ FP-1: CAL PDZ peptide-binding inhibitors, primary screen, biochemical, fluorescence polarization, Cer-tagged CAL PDZ, HTS. Golgi-associated PDZ and coiled-coil motif-containing protein (Homo sapiens), Q9HD26. purified CAL PDZ, TMR-peptide fluorescence polarization, 1 h. inhibition, % at 20 µM. hit rate 0.02% among 330,000;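 active = highest replicate inhibition of at least 40%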
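System: tagged CAL PDZ domain. Schedule: 1 h room-temperature incubation prior to read. Signal: fluorescence polarization (mP). Measure: percent inhibition from loss of millipolarization.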
CAL PDZ FP-2: untagged CAL PDZ binding inhibitors, primary screen, biochemical, fluorescence polarization, HTS. purified CAL PDZ, TMR-peptide fluorescence polarization, 1 h. Golgi-associated PDZ and coiled-coil motif-containing protein (Homo sapiens), Q9HD26. AID 602252, 2012. inhibition, % at 24.9 µM. hit rate 0.92% among 300,000;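 active = mean inhibition of at least 30% with at least half of replicates also reaching 30%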
PglD DTNB: C. jejuni PglD acetyltransferase inhibitors, primary screen, biochemical, DTNB colorimetric, single point | UDP-N-acetylbacillosamine N-acetyltransferase PglD (Campylobacter jejuni) | purified PglD enzyme, DTNB colorimetric CoA detection | inhibition, % at 12.5 µM | hit rate 0.098% among 360,000 | AID 602405, 2012; in the data active = inhibition above about 16%, passing the limit was not always enough
Of the large screens only hits and unclear results are named; the others gave an inactive call. The list is not random: actives were taken first. Their share in the collection is about 1.6%.

O=C(Nc1cccc2ccccc12)c1ccc(F)cc1	CAL PDZ FP-2 52
COc1cc(OCC(=O)NC(C)C)cc2c1C(=O)O[C@@H](C)CCCC(=O)CCCCC2	CAL PDZ FP-2 46 (no result: CAL PDZ FP-1)
CC1=NC(C(F)(F)F)(C(F)(F)F)C2=C(CC(C)(C)CC2=O)N1Cc1ccco1	none
CC1(C)CC(=O)C2=C(C1)N(Cc1ccco1)C(=O)NC2(C(F)(F)F)C(F)(F)F	Vif imaging 54
COC(=O)C(Cc1ccccc1)NC(=O)CCC(=O)NC(C)CCc1ccccc1 (stereo not drawn)	none
COC(=O)[C@H](Cc1ccccc1)NC(=O)NC(C)CCc1ccccc1 (stereo partly drawn)	CAL PDZ FP-2 42 (no result: CAL PDZ FP-1)
CC1(C)C(/C=C/C=C/C=C/C=C2\N(CCCCS(=O)(=O)O)c3ccc4ccccc4c3C2(C)C)=[N+](CCCCS(=O)(=O)[O-])c2ccc3ccccc3c21	ARNT TACC3 PPI 65
Cc1c2ccccc2cc[n+]1CCCS(=O)(=O)[O-]	none (no result: ARNT TACC3 PPI, Yeast UUG start, PglD DTNB)
COc1ccc2oc(-c3ccc(C)c(NC(=O)c4ccc(N5CCOCC5)c([N+](=O)[O-])c4)c3)nc2c1	Vif imaging 73 (no result: CAL PDZ FP-2)
Cc1cccc2cc3c(N)c(C#N)sc3nc12	none
Cc1sc(NC(=O)c2sc3nc4c(C)cccc4cc3c2N)c(C#N)c1C	Vif imaging 53
C/C=C/c1ccc2c(c1)O[C@@H](CN(C)C)[C@@H](C)CN([C@H](C)CO)S2(=O)=O	none (no result: Vif imaging, CAL PDZ FP-1, CAL PDZ FP-2)
CC(C)NCCOc1cccc(Br)c1	Vif imaging 56
CC(C)NCCCCOc1cccc(Br)c1	none (no result: Yeast UUG start, PglD DTNB)
COc1ccccc1C(=O)Nc1ccc2c(c1)C(=O)N(C)C[C@H](OC)[C@@H](C)CN(C)[C@H](C)CO2	none (no result: Yeast UUG start, Vif imaging, CAL PDZ FP-1, CAL PDZ FP-2)
Cc1ccc(CNC(=O)CCNS(=O)(=O)c2ccc3c(c2)c(=O)n(C)c(=O)n3C)cc1	none (no result: CAL PDZ FP-2)
Cn1c(=O)c2cc(S(=O)(=O)NCCC(=O)NCc3ccccc3Cl)ccc2n(C)c1=O	ARNT TACC3 PPI 50
O=C(Nc1ccc(F)cc1)c1cc(-c2ccccc2)no1	CAL PDZ FP-2 109 (no result: Yeast UUG start, PglD DTNB)
O=C1CCN(Cc2ccc(O)cc2)CCN1[C@H](CO)Cc1ccccc1	Vif imaging 54
COc1cccc(NC(=O)Nc2ccc3c(c2)C(=O)N(C)[C@H]2CC[C@H](CC(=O)NCCc4ccccc4)O[C@@H]2CO3)c1	none (no result: Yeast UUG start, Vif imaging, CAL PDZ FP-1, CAL PDZ FP-2)
CSc1nc2sc3c(c2c(=O)n1C)CCC3	CAL PDZ FP-2 71
CC(=O)NCCNC(=O)c1oc2ccccc2c1CSc1ncn[nH]1	CAL PDZ FP-2 72
CCOc1ccc(OCCNC(=O)c2oc3ccccc3c2COC)cc1	none
COc1cc(/C=N/n2c(-c3cc(C)[nH]n3)n[nH]c2=S)cc(OC)c1OC	CAL PDZ FP-2 34
COc1ccc(S(=O)(=O)Nc2ccc3c(c2)C(=O)N([C@@H](C)CO)C[C@H](C)[C@H](CN(C)C(=O)Cc2ccccc2)OCCCC[C@@H](C)O3)cc1	none (no result: Vif imaging, CAL PDZ FP-1, CAL PDZ FP-2)
COc1ccc2nc(N3C(=O)C(O)=C(C(=O)c4ccco4)C3c3ccccc3OC)sc2c1 (stereo not drawn)	Vif imaging 82
C[C@H]1CN([C@@H](C)CO)S(=O)(=O)c2ccc(-c3cccc(C(=O)N(C)C)c3)cc2O[C@@H]1CN(C)C(=O)Cc1ccccn1	none (no result: Vif imaging, CAL PDZ FP-1, CAL PDZ FP-2)
CO[C@H]1CN(C)C(=O)c2cc(NC(=O)c3cc(C)on3)ccc2OC[C@@H](C)N(CC2CC2)C[C@@H]1C	none (no result: Yeast UUG start, Vif imaging, CAL PDZ FP-1, CAL PDZ FP-2)
C=CCNC(=O)/C(=C\c1ccco1)NC(=O)c1ccco1	CAL PDZ FP-2 65
C=CCNC(=O)/C(=C/c1ccco1)NC(=O)c1ccc(Br)o1	none (no result: Vif imaging)
CO[C@@H]1CN(C)C(=O)c2ccc(NC(=O)C3CC3)cc2OC[C@@H](C)N(CC2CCCC2)C[C@@H]1C	none (no result: Vif imaging, CAL PDZ FP-1, CAL PDZ FP-2)
N=C1CCC(=N)c2c1c(O)c1ccccc1c2O	ARNT TACC3 PPI 51 (no result: Yeast UUG start, PglD DTNB)
N#Cc1c(C#N)c(O)c2ccccc2c1O	none
CCCCn1c(SCC(=O)N(CC)C2CCS(=O)(=O)C2)nc2cc(S(N)(=O)=O)ccc21 (stereo not drawn)	none (no result: Yeast UUG start, PglD DTNB)
CN(C(=O)CSc1nc2ccccc2c(=O)n1-c1ccccc1F)C1CCS(=O)(=O)C1 (stereo not drawn)	Vif imaging 62
CCCCn1c(SCC(=O)N(C)C2CCS(=O)(=O)C2)nc2cc(S(N)(=O)=O)ccc21 (stereo not drawn)	CAL PDZ FP-2 53
CCCN(C)C[C@@H]1Oc2cc(C#Cc3cccc(F)c3)ccc2S(=O)(=O)N([C@H](C)CO)C[C@@H]1C	none (no result: Vif imaging, CAL PDZ FP-1, CAL PDZ FP-2)
O=C(/C=C\c1ccco1)Nc1cc([N+](=O)[O-])ccc1F	Vif imaging 64 (no result: Yeast UUG start, PglD DTNB)
CC(C)(C)CC(=O)NCCCN1CCOCC1	CAL PDZ FP-2 37
CC(C)CNC(=O)C(=O)NCCCN1CCOCC1	none (no result: Yeast UUG start, PglD DTNB)
COc1cccc(C(=O)NCC(=O)N/N=C/c2cccc(OC(=O)c3ccc([N+](=O)[O-])cc3)c2)c1	none (no result: ARNT TACC3 PPI, Yeast UUG start, PglD DTNB)
O=C(CNC(=O)c1ccc([N+](=O)[O-])cc1)N/N=C\c1ccc(OC(=O)c2ccccc2)cc1	Vif imaging 50
Cc1ccc(-n2c(O)c(C=Nc3ccc4c(c3)OCO4)c3ccccc3c2=O)cc1C	none (no result: Yeast UUG start, PglD DTNB)
Cc1cc(N=Cc2c(O)n(-c3ccc4c(c3)OCO4)c(=O)c3ccccc23)ccn1	CAL PDZ FP-2 35
CCOC(=O)c1c(C)[nH]c(-c2csc(N)n2)c1C	Vif imaging 112 (no result: Yeast UUG start, PglD DTNB)
CC(C)c1ccc(C2OCCCO2)cc1	none (no result: ARNT TACC3 PPI, Yeast UUG start, CAL PDZ FP-2, PglD DTNB)
CC(C)c1ccc(C2OCC(C)([N+](=O)[O-])CO2)cc1 (stereo not drawn)	CAL PDZ FP-2 91
CCC(=O)NNC(=O)CCC(=O)Nc1ccc(C)cc1C	none (no result: Yeast UUG start, CAL PDZ FP-1, PglD DTNB)
Cc1ccc(NC(=O)CCC(=O)NNC(=O)NC2CCCCC2)c(C)c1	Vif imaging 79 (no result: CAL PDZ FP-2)
Cc1ccc(S(=O)(=O)N2CCCCC2)cc1NC(=O)COC(=O)C1(C)CC1(Cl)Cl (stereo not drawn)	CAL PDZ FP-2 67
Cc1ccc(C)c(NC(=O)CN(C)C(=O)c2ccc3c(=O)n4c(nc3c2)CCC4)c1	CAL PDZ FP-2 49
Cc1ccc(C)c(NC(=O)CN(C)C(=O)c2cccc(S(=O)(=O)N3CCCC3)c2)c1	Vif imaging 53
Cc1ccc(S(=O)(=O)N2CCOCC2)cc1NC(=O)COC(=O)C1(C)CC1(Cl)Cl (stereo not drawn)	none
Cc1ccc(C)c(NC(=O)CN(C)C(=O)c2cccc(S(=O)(=O)N3CCN(Cc4ccccc4)CC3)c2)c1	none
